By Emax is commonly meant the maximal effect, on the per cent scale that the assay sets. For orientation: EC50 means the concentration that produces a half-maximal response. The term IC50 denotes the concentration at which inhibition is half-maximal. What is called Ki is the dissociation constant of the complex between target and ligand, obtained from inhibition or displacement.

The chains behind the UniProt entries cited, without tags or fusion partners. Where a name states a change or a piece, a line headed by the entry shows the natural chain unless it says otherwise.
UniProt Q9HBW0, whole entry: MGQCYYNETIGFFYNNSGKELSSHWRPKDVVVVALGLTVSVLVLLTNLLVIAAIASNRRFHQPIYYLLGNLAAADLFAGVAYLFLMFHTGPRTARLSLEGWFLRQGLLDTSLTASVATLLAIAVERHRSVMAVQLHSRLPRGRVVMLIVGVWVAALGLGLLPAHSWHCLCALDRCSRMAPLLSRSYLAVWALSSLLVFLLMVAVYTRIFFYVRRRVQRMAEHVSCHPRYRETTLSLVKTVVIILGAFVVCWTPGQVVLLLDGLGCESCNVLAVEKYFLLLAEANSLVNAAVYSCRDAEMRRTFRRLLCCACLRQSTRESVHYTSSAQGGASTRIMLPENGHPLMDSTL
UniProt Q92633: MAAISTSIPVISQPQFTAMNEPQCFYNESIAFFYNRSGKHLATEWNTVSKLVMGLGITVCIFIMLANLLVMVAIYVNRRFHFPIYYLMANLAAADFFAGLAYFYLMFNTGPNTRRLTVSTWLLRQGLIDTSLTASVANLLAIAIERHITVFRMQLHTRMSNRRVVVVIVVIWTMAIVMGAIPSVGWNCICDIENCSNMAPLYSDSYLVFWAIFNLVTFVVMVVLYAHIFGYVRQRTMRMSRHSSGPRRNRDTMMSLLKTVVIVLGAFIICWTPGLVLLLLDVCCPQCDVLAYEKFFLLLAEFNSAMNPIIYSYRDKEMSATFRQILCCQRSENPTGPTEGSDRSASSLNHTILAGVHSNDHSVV

Structures are written as SMILES. Like-named read-outs stand apart in the source and are kept apart here. Some results are limits rather than exact numbers.

Test [1] concerns the target T1, LPA2 (Homo sapiens, UniProt Q9HBW0).
T1 construct: expressed in transfected cells
The conditions noted are these: relative to LPA 18:1; previously reported in Virag et al. (2003); cited from earlier work.

Test [2] has as its target T1, LPA2. Nature of the test: Ca2+ transients (agonism / inhibition of LPA response) in RH7777 cells stably expressing LPA2. The format is cell-based. Here is the method:
(§1) The culture medium (DMEM containing 10% FBS) was then replaced with modified Krebs solution (120 mM NaCl, 5 mM KCl, 0.62 mM MgSO4, 1.8 mM CaCl2, 10 mM HEPES, 6 mM glucose, pH 7.4) and the cells were serum starved for 6–8 hours (12 h for PC-3 cells). Cells were loaded with Fura-2 AM for 35 minutes in modified Krebs medium. The Fura-2 was removed before loading the plate in the FlexStation instrument by replacing the medium once again with 100 μl modified Krebs medium/well. Plates were incubated for 4 minutes in the instrument to allow for warming to 37° C. Changes in intracellular Ca^2+ concentration were monitored by measuring the ratio of emitted light intensity at 520 nm in response to excitation by 340 nm and 380 nm wavelength lights, respectively. Each well was monitored for 80–120 seconds. […] Time courses were recorded using the SoftMax Pro software (Molecular Devices, Sunnyvale, Calif.). Ca^2+ transients were quantified automatically by calculating the difference between maximum and baseline ratio values for each well.
(§2) Each FAP analog was tested for the ability to induce Ca^2+ transients in RH7777 cells transfected with LPA1-3 receptors (agonism), as well as the ability to inhibit LPAinduced Ca^2+ transients in the same cells (antagonism) (Table 3).

The target of test [3] is T2, LPA1 (Homo sapiens, UniProt Q92633).
T2 construct: expressed in transfected cells
Nature of the test: Ca2+ transients (agonism / inhibition of LPA response) in RH7777 cells stably expressing LPA1. The format is cell-based. The conditions noted are these: for EC50: induction of Ca2+ transients; for IC50 / Ki: inhibition of LPA-induced Ca2+ transients. As for the experimental part:
as §1, §2

Test [4] has as its target T3, LPA3 (Homo sapiens, UniProt Q9UBY5).
T3 construct: expressed in transfected cells
T3 sequence (Q9UBY5 1-353): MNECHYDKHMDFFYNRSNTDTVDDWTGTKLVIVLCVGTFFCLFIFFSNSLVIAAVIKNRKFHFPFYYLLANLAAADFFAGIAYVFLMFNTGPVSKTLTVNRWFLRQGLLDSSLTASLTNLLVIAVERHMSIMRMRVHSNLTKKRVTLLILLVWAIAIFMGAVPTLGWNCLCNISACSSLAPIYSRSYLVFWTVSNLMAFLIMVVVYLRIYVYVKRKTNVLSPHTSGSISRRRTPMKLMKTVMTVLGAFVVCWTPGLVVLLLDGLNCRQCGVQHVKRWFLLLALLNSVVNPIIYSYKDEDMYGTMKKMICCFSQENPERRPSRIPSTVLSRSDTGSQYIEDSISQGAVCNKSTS
Kind of test: Ca2+ transients (agonism / inhibition of LPA response) in RH7777 cells stably expressing LPA3. The format is cell-based. As for the experimental part: as §1, §2

The mark [5] stands for this setting: maximal efficacy of the drug/maximal efficacy of LPA 18:1.

With `CCCCCCCCCCOP(=O)(O)O` [Compound 2a], in test [1], the “LPA2 (Emax)” value is recorded as 82%.
With `CCC=CCCCCCCCCOP(=O)(O)O` [Compound 5c, Phosphoric acid monododec-9-enyl ester], the Emax in test [2] (RH7777, maximal efficacy of the drug/maximal efficacy of LPA 18:1, read-out: LPA2 (Emax)) amounted to 78%.
In test [3], `CCCCC=CCCCCCCCCOP(=O)(O)O` [Compound 5d, Phosphoric acid monotetradec-9-enyl ester] came in with an EC50 of more than 30000 nM, an IC50 of 3000 nM and an inhibition constant (Ki) of 1150 nM.
With `CCC=CCCCCCCCCCCOP(=O)(O)O` [Compound 5e, Phosphoric acid monotetradec-11-enyl ester], in test [3], the EC50 was more than 30000 nM, the IC50 was found to be 2200 nM and the inhibition constant (Ki) was found to be 457 nM.
As for `CCCCCCCCC=CCCCCCCCCOP(O)(O)=S` [Compound 8g, Thiophosphoric acid O-octadec-9-enyl ester], the Emax in test [2] (RH7777, read-out: LPA2 (Emax)) was 175%; in test [4] (RH7777, read-out: LPA3 (Emax)) it was 78%. In test [2] (setting [5]), the “LPA2 (Emax)” value stood at 175%. Also, the “LPA3 (Emax)” value in test [4] (setting [5]) worked out at 78%.

Values taken from patent US7217704B2, “LPA receptor agonists and antagonists and methods of use” (The University of Tennessee Research Foundation, priority 2003, dated 2007).
